Laboratory results as given in PMC7101055 (ACS Chemical Neuroscience, 2020).

Chains of the proteins cited; added tags and fusions are not shown.
UniProt P61168, whole entry: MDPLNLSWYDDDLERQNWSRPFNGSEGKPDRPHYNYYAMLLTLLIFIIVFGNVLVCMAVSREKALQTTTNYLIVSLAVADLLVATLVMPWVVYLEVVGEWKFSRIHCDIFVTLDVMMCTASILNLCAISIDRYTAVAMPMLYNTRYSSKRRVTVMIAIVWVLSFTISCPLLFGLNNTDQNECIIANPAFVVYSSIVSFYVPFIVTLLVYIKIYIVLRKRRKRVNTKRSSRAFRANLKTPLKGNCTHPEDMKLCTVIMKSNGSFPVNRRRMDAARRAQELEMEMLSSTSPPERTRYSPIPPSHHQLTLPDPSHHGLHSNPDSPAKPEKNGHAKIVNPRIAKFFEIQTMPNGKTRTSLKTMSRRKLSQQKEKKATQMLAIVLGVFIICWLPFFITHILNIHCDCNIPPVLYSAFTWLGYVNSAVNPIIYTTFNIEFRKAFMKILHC

Molecular target: D2 receptors on substantia nigra dopamine neurons (Mus musculus, UniProt P61168)
Format: cell-based
Conditions: CyHQ-sulpiride 5 μM, 1 s flash; quinpirole 300 nM or dopamine 1 μM

For `CCCN1CCC[C@@H]2Cc3n[nH]cc3C[C@H]21` [quinpirole], the “time constant of decay τ of D2 current after CyHQ-sulpiride photolysis” value was 635 ms.
